In US20140105970A1, “ADJUVANT AND ANTIGEN PARTICLE FORMULATION” (published 2014):

System: not given
Assay: not given
Conditions: colour change from colorless to coloured form; cited from earlier work

Compound | pH Change (pH range of colour change)
CCOC(=O)C(c1ccc(C)cc1C)c1ccc(C)cc1C | 8.4-9.6 pH
o-Cresolpthalein | 8.2-9.8 pH
Ethyl Red | 4.0-5.8 pH
O=[N+]([O-])c1ccc(O)cc1 | 5.4-6.6 pH
Cc1cc(O)c(C(C)C)cc1C1(c2cc(C(C)C)c(O)cc2C)OC(=O)c2ccccc21 | 8.8-10.5 pH
O=C1OC(c2ccc(O)cc2)(c2ccc(O)cc2)c2ccccc21 | 8.2-10.0 pH
Quinaldine Red | 1.0-2.2 pH
O=[N+]([O-])c1ccc(O)c([N+](=O)[O-])c1 | 2.8-4.0 pH

System: C57Bl/6 mice
Assay: Intra-dermal injection of free epitopes with adjuvants, interferon gamma Elispot of harvested T-Cells
Conditions: free epitopes injected intra-dermally (tail) with adjuvants CpG and MPL; T-Cells harvested 14 days post inoculation, challenged in-vitro with same epitopes

Compound | immune response (interferon gamma Elispot)
RGYVYQGL | no measureable immune response
SIINFEKL | no measureable immune response

System: mice
Assay: Effect of adjuvant placement (sphere or carrier solution) on immune response of immunized mice (FIG. 7, FIG. 8)
Conditions: 10 micron OVA-loaded microspheres with CpG; MPLA 10 micrograms in 2 milligrams of microparticles

Compound | immune response with MPLA included in the spheres themselves
monophosphoryl lipid A | does not show a dramatic improvement

Same assay, conditions: 10 micron OVA-loaded microspheres with CpG; MPLA 10 micrograms per mouse; p=0.0002

Compound | immune response with MPLA in the carrier solution versus inside the spheres
monophosphoryl lipid A | improvement in the immune response
